Ki data for one compound are collected here from ChEMBL document CHEMBL1133464, “Ligands for glutamate receptors: design and therapeutic prospects” (J Med Chem, 2000).

Amino acid sequences for entries named in this document (tags omitted). A change or cut given only in a name is not applied to a line headed by its entry.
UniProt Q13255: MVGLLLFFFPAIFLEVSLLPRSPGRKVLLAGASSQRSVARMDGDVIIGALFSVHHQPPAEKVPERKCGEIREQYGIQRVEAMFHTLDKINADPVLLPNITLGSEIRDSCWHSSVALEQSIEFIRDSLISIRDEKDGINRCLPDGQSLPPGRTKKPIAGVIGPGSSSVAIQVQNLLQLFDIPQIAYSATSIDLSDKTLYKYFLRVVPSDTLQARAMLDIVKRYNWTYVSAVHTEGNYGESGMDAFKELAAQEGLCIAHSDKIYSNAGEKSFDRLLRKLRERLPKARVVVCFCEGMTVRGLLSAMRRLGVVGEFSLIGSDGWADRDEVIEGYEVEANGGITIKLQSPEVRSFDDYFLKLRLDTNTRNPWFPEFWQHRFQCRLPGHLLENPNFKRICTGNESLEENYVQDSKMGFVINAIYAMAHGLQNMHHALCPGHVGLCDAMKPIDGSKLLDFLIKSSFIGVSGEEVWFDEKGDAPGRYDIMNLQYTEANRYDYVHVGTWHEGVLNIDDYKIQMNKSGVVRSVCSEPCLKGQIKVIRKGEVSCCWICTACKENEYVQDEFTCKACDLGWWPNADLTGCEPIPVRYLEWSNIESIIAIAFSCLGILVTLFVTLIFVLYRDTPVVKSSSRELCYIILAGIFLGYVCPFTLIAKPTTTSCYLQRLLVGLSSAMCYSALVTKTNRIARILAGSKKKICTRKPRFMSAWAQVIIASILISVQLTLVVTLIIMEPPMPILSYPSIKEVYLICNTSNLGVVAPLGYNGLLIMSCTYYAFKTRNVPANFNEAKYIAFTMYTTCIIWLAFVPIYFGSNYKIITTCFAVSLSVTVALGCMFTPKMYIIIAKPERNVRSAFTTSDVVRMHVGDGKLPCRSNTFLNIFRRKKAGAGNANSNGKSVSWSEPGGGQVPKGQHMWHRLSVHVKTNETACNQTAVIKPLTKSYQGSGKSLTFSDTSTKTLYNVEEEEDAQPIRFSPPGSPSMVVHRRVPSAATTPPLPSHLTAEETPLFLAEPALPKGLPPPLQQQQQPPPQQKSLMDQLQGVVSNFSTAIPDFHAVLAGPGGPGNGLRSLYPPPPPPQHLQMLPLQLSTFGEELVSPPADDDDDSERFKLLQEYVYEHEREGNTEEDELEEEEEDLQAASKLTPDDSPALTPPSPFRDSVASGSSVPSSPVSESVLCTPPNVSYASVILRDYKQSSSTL

Molecules are shown by their SMILES.

This assay deals with Metabotropic glutamate receptor 1 (Homo sapiens, UniProt Q13255). Nature of the assay: Agonist potency against cloned human metabotropic glutamate receptor 1. The class given is functional.

`N[C@@H](Cn1oc(=O)[nH]c1=O)C(=O)O` [QUISQUALATE] gave a Ki of 1100 nM.

The term Ki denotes the equilibrium dissociation constant of an inhibitor or competing ligand from its target. High values mean a looser hold on the target, low ones a stronger hold on the target.
